Values joined by “and” are separate entries in the source; they are usually repeats but may differ in a detail not shown here. Identical values can stand only once. Active and inactive are the calls of the source.
What was measured:
[1] = target: T1, Mitogen-activated protein kinase kinase kinase kinase 2 (Homo sapiens, UniProt Q12851); assay type: functional;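 also: measured as one member of a kinome-wide kinase panel, with MAP4K2 as the panel entry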
T1 sequence (Q12851 whole entry): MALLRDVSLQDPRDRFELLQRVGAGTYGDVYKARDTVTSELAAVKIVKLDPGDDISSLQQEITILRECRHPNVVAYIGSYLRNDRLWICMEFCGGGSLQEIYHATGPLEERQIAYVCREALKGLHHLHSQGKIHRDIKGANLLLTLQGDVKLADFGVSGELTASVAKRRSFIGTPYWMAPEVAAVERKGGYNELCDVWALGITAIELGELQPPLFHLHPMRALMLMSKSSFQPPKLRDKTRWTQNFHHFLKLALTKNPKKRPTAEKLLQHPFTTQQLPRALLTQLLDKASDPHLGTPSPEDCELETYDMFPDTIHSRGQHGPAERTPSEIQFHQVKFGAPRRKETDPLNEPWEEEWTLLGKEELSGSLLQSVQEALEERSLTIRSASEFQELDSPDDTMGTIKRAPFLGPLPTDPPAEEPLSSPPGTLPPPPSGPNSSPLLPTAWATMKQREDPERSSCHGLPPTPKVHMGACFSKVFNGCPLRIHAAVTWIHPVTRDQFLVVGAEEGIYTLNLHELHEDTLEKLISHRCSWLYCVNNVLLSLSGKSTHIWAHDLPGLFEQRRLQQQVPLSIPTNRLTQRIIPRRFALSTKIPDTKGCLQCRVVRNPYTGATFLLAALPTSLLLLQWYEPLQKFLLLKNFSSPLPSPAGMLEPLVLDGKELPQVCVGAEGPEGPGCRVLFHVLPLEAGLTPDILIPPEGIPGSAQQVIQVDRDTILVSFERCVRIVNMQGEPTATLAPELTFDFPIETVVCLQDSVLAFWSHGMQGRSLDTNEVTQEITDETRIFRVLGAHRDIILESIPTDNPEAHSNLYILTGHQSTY

Chains of the proteins cited; added tags and fusions are not shown. Lines headed by an entry give the natural chain unless they say otherwise; changes in a name come on top.
UniProt P24822: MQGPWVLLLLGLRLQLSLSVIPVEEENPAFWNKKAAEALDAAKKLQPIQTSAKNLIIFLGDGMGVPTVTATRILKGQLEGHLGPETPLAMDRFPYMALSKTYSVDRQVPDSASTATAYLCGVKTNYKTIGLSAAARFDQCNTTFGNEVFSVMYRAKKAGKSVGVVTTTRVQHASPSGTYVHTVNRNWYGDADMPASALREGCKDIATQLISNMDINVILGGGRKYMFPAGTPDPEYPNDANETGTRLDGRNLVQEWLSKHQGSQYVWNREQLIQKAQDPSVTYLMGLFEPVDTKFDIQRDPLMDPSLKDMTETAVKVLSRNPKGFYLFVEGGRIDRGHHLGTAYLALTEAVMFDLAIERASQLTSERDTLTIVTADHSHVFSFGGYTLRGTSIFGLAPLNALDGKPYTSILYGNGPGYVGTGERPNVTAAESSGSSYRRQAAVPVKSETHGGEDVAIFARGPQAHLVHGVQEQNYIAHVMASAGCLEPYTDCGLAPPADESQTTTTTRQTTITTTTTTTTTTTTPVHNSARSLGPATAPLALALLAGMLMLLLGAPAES
UniProt P49759: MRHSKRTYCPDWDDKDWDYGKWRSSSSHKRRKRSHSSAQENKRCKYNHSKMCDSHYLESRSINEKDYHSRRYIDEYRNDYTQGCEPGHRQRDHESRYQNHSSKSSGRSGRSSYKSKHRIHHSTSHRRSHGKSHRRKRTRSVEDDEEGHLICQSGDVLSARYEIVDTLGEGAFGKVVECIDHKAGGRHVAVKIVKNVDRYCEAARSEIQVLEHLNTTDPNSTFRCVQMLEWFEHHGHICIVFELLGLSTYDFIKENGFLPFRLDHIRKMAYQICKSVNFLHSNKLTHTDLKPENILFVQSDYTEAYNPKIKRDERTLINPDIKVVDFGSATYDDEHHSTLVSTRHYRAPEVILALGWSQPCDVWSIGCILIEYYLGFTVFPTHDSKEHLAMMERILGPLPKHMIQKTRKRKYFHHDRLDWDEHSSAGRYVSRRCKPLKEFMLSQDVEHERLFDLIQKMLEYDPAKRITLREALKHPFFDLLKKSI
UniProt Q932Y6, whole entry: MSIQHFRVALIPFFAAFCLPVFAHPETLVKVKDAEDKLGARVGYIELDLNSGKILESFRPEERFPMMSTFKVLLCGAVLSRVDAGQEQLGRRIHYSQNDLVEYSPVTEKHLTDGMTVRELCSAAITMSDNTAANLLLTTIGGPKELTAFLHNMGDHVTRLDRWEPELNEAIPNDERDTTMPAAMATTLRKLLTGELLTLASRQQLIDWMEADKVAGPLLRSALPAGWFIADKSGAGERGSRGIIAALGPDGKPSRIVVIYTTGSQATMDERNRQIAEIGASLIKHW

[2] = target: Intestinal-type alkaline phosphatase (Mus musculus, UniProt P24822); assay: PubChem AID 488785; assay type: functional
[3] = target: Dual specificity protein kinase CLK1 (Homo sapiens, UniProt P49759); assay: inhibition of human CLK1 activity – biochemical, cherry-picked samples, selectivity assay for Dyrk1A inhibitor project, dose response (AID 588811)
cells = assay type: functional
[4] = target: T2, Corticotropin-releasing factor receptor 2/Corticotropin-releasing factor-binding protein (Homo sapiens, UniProt P24387+Q13324); assay: activators of CRF receptor 2 with binding protein – uHTS hits, confirmation (AID 602473); assay type: functional; details: read-out: EC50_Mean
T2 sequence (Q13324 whole entry): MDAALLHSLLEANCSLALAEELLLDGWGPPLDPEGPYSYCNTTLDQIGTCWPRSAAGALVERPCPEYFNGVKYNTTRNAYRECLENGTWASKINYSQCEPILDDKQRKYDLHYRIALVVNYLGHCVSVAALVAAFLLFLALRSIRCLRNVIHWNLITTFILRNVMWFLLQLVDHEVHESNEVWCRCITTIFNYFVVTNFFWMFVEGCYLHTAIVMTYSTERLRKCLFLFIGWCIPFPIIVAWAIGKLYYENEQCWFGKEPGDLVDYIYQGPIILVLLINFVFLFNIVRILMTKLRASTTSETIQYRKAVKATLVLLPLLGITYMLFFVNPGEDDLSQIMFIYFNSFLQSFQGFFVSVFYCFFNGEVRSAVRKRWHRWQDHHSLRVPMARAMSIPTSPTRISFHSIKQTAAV
T2 sequence (P24387 whole entry): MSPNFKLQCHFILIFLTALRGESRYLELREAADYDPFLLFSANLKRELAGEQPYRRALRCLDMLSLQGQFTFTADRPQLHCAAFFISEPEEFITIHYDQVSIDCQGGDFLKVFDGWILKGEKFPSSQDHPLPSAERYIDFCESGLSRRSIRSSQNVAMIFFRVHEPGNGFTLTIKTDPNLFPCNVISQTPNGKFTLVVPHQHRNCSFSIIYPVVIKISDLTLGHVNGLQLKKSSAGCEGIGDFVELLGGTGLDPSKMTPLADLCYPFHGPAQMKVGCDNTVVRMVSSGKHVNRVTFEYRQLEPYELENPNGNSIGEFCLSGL

[5] = blockers of CRF-binding protein–CRF-R2 complex – cell-based, uHTS hits, 384-well, dose response (AID 651639); assay type: functional, Homo sapiens; details: read-out: IC50_Mean
[6] = target: T2, Corticotropin-releasing factor receptor 2/Corticotropin-releasing factor-binding protein; assay: Dose Response confirmation of uHTS hits for small molecule antagonists of the CRF-binding protein and CRF-R2 receptor complex.; assay type: functional; details: read-out: IC50_Mean
Beta Lactamase = Beta Lactamase (Pseudomonas aeruginosa, UniProt Q932Y6); assay: BLA reporter interference, concentration series – BLA reporter cells, FRET fluorescence, artefact control for TLR9-MyD88 binding inhibitor project, dose response (AID 588341); assay type: cell-based;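 also: cell based assay in CHO-K1 cells stably expressing beta-lactamase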
[7] = target: T3, Hepatocyte nuclear factor 4-alpha (Homo sapiens, UniProt P41235); assay type: functional, cell-based;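 also: biochemical luminescence-based dose-response counterscreen measuring inhibition of HNF4 dimerization, run alongside a screen for blockers of ABHD5–perilipin-5 interaction; split luciferase complementation of HNF4 fusion proteins in cell lysate measuring dimerization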
T3 sequence (P41235 whole entry): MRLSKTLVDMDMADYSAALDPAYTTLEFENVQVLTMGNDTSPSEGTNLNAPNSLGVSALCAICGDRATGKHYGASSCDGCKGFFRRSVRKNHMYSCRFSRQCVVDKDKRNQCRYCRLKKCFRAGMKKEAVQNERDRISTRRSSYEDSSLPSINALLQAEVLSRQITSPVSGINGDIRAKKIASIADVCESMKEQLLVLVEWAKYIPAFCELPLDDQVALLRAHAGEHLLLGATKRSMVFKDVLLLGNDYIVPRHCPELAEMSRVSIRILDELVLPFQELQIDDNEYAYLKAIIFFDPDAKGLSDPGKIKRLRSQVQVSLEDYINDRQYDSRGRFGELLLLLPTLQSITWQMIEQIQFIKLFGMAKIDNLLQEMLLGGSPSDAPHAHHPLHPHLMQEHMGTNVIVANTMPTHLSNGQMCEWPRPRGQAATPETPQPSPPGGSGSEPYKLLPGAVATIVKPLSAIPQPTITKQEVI

For `Cc1cc(Nc2cc(N3CCN(C)CC3)nc(Sc3ccc(NC(=O)C4CC4)cc3)n2)[nH]n1` [TOZASERTIB], the Ki [1] was inactive: > 3.16 µM.
For `COc1cc(/C=C/C(=O)CC(=O)/C=C/c2ccc(O)c(OC)c2)ccc1O` [CURCUMIN], the IC50 [2] was active: 18.7 µM and active: 12 µM.
For `c1coc(CCNc2ncnc3ccc(-c4ccc5c(c4)OCO5)cc23)c1`, the AC50 [3] was active: < 0.00195 µM.
In the case of `O=C(Nc1cccnc1)c1ccc([N+](=O)[O-])s1`, the IC50 (cells) is reported as active: 8.97 µM.
For `CCc1nnc(NS(=O)(=O)c2ccc(/N=C/c3c(C)[nH]n(-c4cccc(Cl)c4)c3=O)cc2)s1`, the EC50 [4] was inactive: > 53 µM, the IC50 [5] was inactive: 20 µM and the IC50 [6] was active: < 0.368 µM.
For `O=c1c(Cl)c(Cl)cnn1Cc1nnc(-c2ccccc2Br)o1`, the IC50 (Beta Lactamase) was inactive: > 49.8 µM.
For `CC(=O)Nc1ccc(OCc2cn(CC(=O)c3ccc(O)cc3)nn2)cc1`, the IC50 [7] was active: 3.99 µM.
